# Yeast mating assay B: variants of the scFv Ab-14

Binding partner: SARS-CoV-2 spike HR2 peptide, sequence PDVDLGDISGINAS.

Parent: Ab-14, a human scFv built as VH, a 15-residue (Gly4Ser)3 linker, VL. Only the CDRs of the light chain vary.
VH: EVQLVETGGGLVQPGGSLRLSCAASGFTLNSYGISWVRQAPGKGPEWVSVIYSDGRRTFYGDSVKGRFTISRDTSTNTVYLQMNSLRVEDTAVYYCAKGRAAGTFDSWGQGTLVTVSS
VL: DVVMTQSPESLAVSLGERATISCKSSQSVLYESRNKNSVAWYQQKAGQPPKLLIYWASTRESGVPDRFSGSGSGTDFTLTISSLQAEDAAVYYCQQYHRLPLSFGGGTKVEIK

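This is the validation round: designs drawn from the data on random variants, tested in the same kind of assay. Their group label is 14L_GP_Gen (GP: Gaussian process model; Gen: genetic algorithm; a sequence that several methods proposed may carry one label only). The assay is AlphaSeq: two haploid yeast populations carry antibody and antigen on their surface. Mating (16 h, 30 °C) was followed by selection of diploids and sequencing of their barcodes. A regression on co-assayed BCL2-family reference pairs converts the normalised counts of each replicate to an apparent Kd. The assay was run in six technical replicates.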

Positions count from residue 1 of the parent VL; S25L puts L in place of S. Affinities are written as log10 Kd with Kd in nM; a lower number is a better binder. Replicates are averaged; those with no signal do not enter the mean.

| changes | log10 Kd, replicates | log10 Kd (nM), mean | signal with controls |
|---|---|---|---|
| S25L S33E W56E | -0.14 -0.27 -0.40 -0.42 -0.41 -0.15 | -0.30 | 1/18 (2.38) |
| S25L S26E Q27M V29E W56N | -0.15 -0.22 -0.42 -0.33 -0.15 -0.05 | -0.22 | 4/18 (3.03) |
| S25L V29W W56G S62D | -0.06 -0.26 -0.36 -0.48 -0.49 -0.21 | -0.31 | 2/18 (2.68) |
| S25F V29G W56E | 0.33 0.18 0.15 0.04 0.13 0.17 | 0.17 | 1/18 (3.52) |
| K24H S25L V29E W56N T59Y | -0.04 0.21 -0.22 -0.20 0.14 0.16 | 0.01 | 0/18 |
| S25L S26A V29W W56N T59Q | 0.06 -0.18 -0.24 -0.27 -0.35 -0.14 | -0.19 | 1/18 (2.55) |
| S25L S26E V29Q W56N T59Q | -0.14 -0.21 -0.29 -0.28 -0.24 0.05 | -0.19 | 2/18 (3.28) |
| S25L V29Q N35M S38N W56N T59Q | 0.03 0.01 0.02 -0.27 -0.17 0.09 | -0.05 | 2/18 (3.69) |
| S25L S26Q V29W L30G W56N | -0.06 -0.16 -0.14 -0.23 0.14 0.12 | -0.05 | 0/18 |
| S25L V29D W56G T59Y | -0.33 -0.09 -0.35 -0.38 -0.06 0.04 | -0.20 | 0/18 |
| S25V S26D V29Q W56N | -0.10 -0.26 -0.28 -0.48 -0.26 -0.19 | -0.26 | 0/18 |
| S25L N35M W56N T59Q S62E | 0.04 -0.25 -0.03 -0.21 -0.28 -0.11 | -0.14 | 1/18 (3.10) |
| S25L Q27M W56G | -0.31 -0.28 -0.38 -0.49 -0.59 -0.27 | -0.39 | 1/18 (2.28) |
| S25F S26E V29E W56N | 0.03 0.02 -0.02 -0.08 0.18 -0.02 | 0.02 | 1/18 (2.26) |
| S25L S26P V29T W56N E61L | 0.01 0.41 0.40 0.37 0.29 0.49 | 0.33 | 1/18 (1.87) |
| S25L K36P W56N T59Q E61L | -0.08 -0.13 -0.15 -0.17 -0.14 -0.07 | -0.12 | 2/18 (3.57) |
| S25L V29N W56D | 0.04 -0.08 -0.02 -0.03 -0.22 0.18 | -0.02 | 0/18 |
| K24Y S25L V29E W56N | 0.40 0.13 0.00 -0.10 -0.13 0.13 | 0.07 | 1/18 (2.64) |
| S25V V29Q S38A W56N | 0.06 -0.31 -0.45 -0.51 -0.03 -0.28 | -0.25 | 2/18 (2.45) |
| S25L V29F S33D W56N T59Q | 0.61 0.46 0.16 0.20 0.19 0.57 | 0.36 | 2/18 (2.44) |
| S25V V29D W56N T59Q | 1.80 0.64 0.91 0.65 0.76 0.82 | 0.93 | 0/18 |
| S25L V29Q W56N T59Q S62D | 0.45 0.06 0.02 -0.01 0.24 0.24 | 0.17 | 1/18 (3.24) |
| S25L S26Q V29Q L30P W56N | -0.23 -0.17 -0.30 -0.41 -0.27 -0.11 | -0.25 | 0/18 |
| S25L V29E K36S W56N E61M | 0.24 -0.04 0.02 -0.24 0.16 0.13 | 0.04 | 0/18 |
| S25L S26Q W56E Q96D | -0.29 -0.14 -0.16 -0.20 -0.20 -0.34 | -0.22 | 0/18 |
| S25L K36P W56N E61C | 0.05 0.00 -0.09 -0.28 -0.14 -0.04 | -0.08 | 2/18 (2.52) |
| S25V V29G S38N W56N | 0.50 0.26 0.36 0.28 0.49 0.02 | 0.32 | 2/18 (2.02) |
| S25L V29F W56E S62V | 0.09 -0.08 -0.01 -0.34 -0.13 -0.20 | -0.11 | 1/18 (3.28) |
| S25L S26Q Q27G V29W W56N | 0.04 0.01 -0.27 -0.15 -0.19 -0.26 | -0.13 | 1/18 (4.86) |
| S25L V29E L30E W56N | 0.83 0.18 -0.24 0.30 0.31 0.42 | 0.30 | 0/18 |
| S25L W56N E61L S62D | 0.04 -0.04 -0.29 -0.24 -0.31 -0.05 | -0.15 | 1/18 (2.21) |
| S25L V29E N35M W56N T59Q S62Q | 0.00 0.00 -0.14 -0.07 -0.22 0.08 | -0.06 | 1/18 (2.48) |
| S25M V29W W56D T59Q | 0.04 0.40 -0.17 -0.01 -0.12 0.13 | 0.04 | 0/18 |

The opening 4 entries, copied out:

| changes | log10 Kd, replicates | log10 Kd (nM), mean | signal with controls |
|---|---|---|---|
| S25L S33E W56E | -0.14 -0.27 -0.40 -0.42 -0.41 -0.15 | -0.30 | 1/18 (2.38) |
| S25L S26E Q27M V29E W56N | -0.15 -0.22 -0.42 -0.33 -0.15 -0.05 | -0.22 | 4/18 (3.03) |
| S25L V29W W56G S62D | -0.06 -0.26 -0.36 -0.48 -0.49 -0.21 | -0.31 | 2/18 (2.68) |
| S25F V29G W56E | 0.33 0.18 0.15 0.04 0.13 0.17 | 0.17 | 1/18 (3.52) |

Values of this round are not directly comparable with the first-round values of the same sequences. The parent sequence was in this pool as ten entries: three were never detected, three once, and four in most replicates, with averages from 0.34 to 2.37. As a blank, each scFv also met three strains without target: over all light chain designs, 4% of these pairings were detected, typically at 2.64 and seldom below 1.59. Also given: how often the same scFv was detected with the empty control strains, with their mean in brackets. The authors' rule: three or more of the six replicates give a measured affinity, fewer mean a poor binder.

From the AlphaSeq antibody data of Li et al. 2023 (doi:10.1038/s41467-023-39022-2), copy in the FLAb collection.